The target in this test is Delta-type opioid receptor (Homo sapiens, UniProt P41143). Kind of test: ChEBML_147161. As to the method:
Compound was evaluated for the inhibition of Opioid receptor delta 1 binding to guinea pig brain membranes, using 0.2 nM [3H]naltrindole as radioligand

Chains of the proteins cited; added tags and fusions are not shown.
UniProt P41143, whole entry, looked up: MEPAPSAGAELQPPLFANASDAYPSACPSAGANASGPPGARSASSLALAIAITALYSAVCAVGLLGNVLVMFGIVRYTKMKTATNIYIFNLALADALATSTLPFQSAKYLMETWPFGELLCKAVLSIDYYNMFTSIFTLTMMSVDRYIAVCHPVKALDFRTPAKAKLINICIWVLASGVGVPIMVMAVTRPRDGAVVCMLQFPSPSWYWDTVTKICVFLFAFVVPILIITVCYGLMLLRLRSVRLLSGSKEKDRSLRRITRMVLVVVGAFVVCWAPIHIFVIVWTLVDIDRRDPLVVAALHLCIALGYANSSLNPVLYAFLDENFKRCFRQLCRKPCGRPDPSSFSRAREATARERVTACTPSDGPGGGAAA

The compound `CN(C(=O)Cc1ccc(Cl)c(Cl)c1)[C@H](CN1CCCC1)c1cccc(N)c1` showed an inhibitory constant (Ki) of 7.8 nM. The value for `CN(C(=O)Cc1ccc(Cl)c(Cl)c1)[C@@H](CN1CCCC1)c1cccc(N)c1` was 1850 nM.

The record behind these values is BindingDB's records for 10.1016/S0960-894X(97)00406-X (1997).
